Patent US20240376226A1 (JANUX THERAPEUTICS, published 2024)

B1: SP34 (Ab-9, Ab-10) (antibody, mouse IgG1, V domains shown)
VH: EVQLVESGGGLVQPKGSLKLSCAASGFTFNTYAMNWVRQAPGKGLEWVARIRSKYNNYATYYADSVKDRFTISRDDSQSILYLQMNNLKTEDTAMYYCVRHGNFGNSYVSWFAYWGQGTLVTVSS
VL: QAVVTQESALTTSPGETVTLTCRSSTGAVTTSNYANWVQEKPDHLFTGLIGGTNKRAPGVPARFSGSLIGDKAALTITGAQTEDEAIYFCALWYSNLWVFGGGTKLTVLQ
notes: used naked or chemically biotinylated; also called SP34-biotin
B2: Peptide-18 (synthetic, biotinylated) (peptide)
peptide: QGQSGQGYLWGCEWNCGGITTGGGGS
modifications: C-terminal [PEG4]Lys(biotin)-NH2
B3: Peptide-22 (synthetic, biotinylated) (peptide)
peptide: GGEWCLFDPDVPTCQDGGGGS
modifications: C-terminal [PEG4]Lys(biotin)-NH2
B4: Peptide-24 (synthetic, biotinylated) (peptide)
peptide: GGLECFDPEIPEAFCIGGGGS
modifications: C-terminal [PEG4]Lys(biotin)-NH2
B5: Peptide-25 (synthetic, biotinylated) (peptide)
peptide: GGQGCGTIADPEPHCWGGGGS
modifications: C-terminal [PEG4]Lys(biotin)-NH2
B6: Peptide-28 (synthetic, biotinylated) (peptide)
peptide: GGLCMIGDWLPGDVCLGGGGS
modifications: C-terminal [PEG4]Lys(biotin)-NH2

What was measured:
[1] = target: B2; experiment: ELISA, antibody titrated on captured peptide
[2] = target: T1, Peptide-27 (synthetic, biotinylated) (C-terminal [PEG4]Lys(biotin)-NH2); experiment: ELISA, antibody titrated on captured peptide
T1 peptide: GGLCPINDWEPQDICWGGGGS

[3] = target: B6; experiment: ELISA, antibody titrated on captured peptide
[4] = target: B4; experiment: ELISA, antibody titrated on captured peptide
[5] = target: B3; experiment: ELISA, antibody titrated on captured peptide
[6] = target: T2, Peptide-21 (synthetic, biotinylated) (C-terminal [PEG4]Lys(biotin)-NH2); experiment: ELISA, antibody titrated on captured peptide
T2 peptide: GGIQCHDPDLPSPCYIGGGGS

[7] = target: T3, Peptide-19 (synthetic, biotinylated) (C-terminal [PEG4]Lys(biotin)-NH2); experiment: ELISA, antibody titrated on captured peptide
T3 peptide: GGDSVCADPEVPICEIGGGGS

[8] = target: T4, Peptide-23 (synthetic, biotinylated) (C-terminal [PEG4]Lys(biotin)-NH2); experiment: ELISA, antibody titrated on captured peptide
T4 peptide: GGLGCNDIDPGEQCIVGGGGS

[9] = target: T5, Peptide-20 (synthetic, biotinylated) (C-terminal [PEG4]Lys(biotin)-NH2); experiment: ELISA, antibody titrated on captured peptide
T5 peptide: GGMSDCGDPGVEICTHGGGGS

[10] = target: B5; experiment: ELISA, antibody titrated on captured peptide
[11] = target: T6, Peptide-26 (synthetic, biotinylated) (C-terminal [PEG4]Lys(biotin)-NH2); experiment: ELISA, antibody titrated on captured peptide
T6 peptide: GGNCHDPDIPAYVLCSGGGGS

[12] = target: B1; experiment: competition ELISA, peptide vs SP34 binding captured CD3

Binder: B1
- EC50 [1]: 2.75 nM
- EC50 [2]: 7.62 nM
- EC50 [3]: 6.76 nM
- EC50 [4]: 2.66 nM
- EC50 [5]: 2.56 nM
- EC50 [6]: 8.25 nM
- EC50 [7]: 8.03 nM
- EC50 [8]: 8.2 nM
- EC50 [9]: 7.13 nM
- EC50 [10]: 1.95 nM
- EC50 [11]: 8.69 nM

Binder: B2
- IC50 [12]: 4760 nM

Binder: B3
- IC50 [12]: 1810 nM

Binder: B4
- IC50 [12]: 2220 nM

Binder: B5
- IC50 [12]: 2490 nM

Binder: B6
- IC50 [12]: 96000 nM
